Article PMC1500806, “Carrageenan Is a Potent Inhibitor of Papillomavirus Infection” (PLoS Pathogens, 2006)

Tested on: HeLa cells
Assay: Cytotoxicity (WST-1 turnover and/or cell morphology)
Type: cell-based
Experimental: Compounds were tested using a previously described PsV-based papillomavirus inhibition assay. Briefly, HeLa cells were plated at 6,000 cells/well in 50 μl of medium in 96-well plates. Candidate inhibitors were dissolved at 1–10 mg/ml (or reconstituted as directed by manufacturer) in sterile water or appropriate solvent, then subjected to a ten-point three-fold serial dilution covering an appropriate concentration range. Diluted candidate inhibitor (50 μl) was added to preplated HeLa cells, followed by 50 μl of diluted PsV stock. The cells were incubated for 24 h, fed by addition of 100 μl of DMEM-10, then subjected to flow cytometric analysis 48–56 h after infection. IC50 values and 95% CI were determined using Prism (GraphPad Software, San Diego, California, United States) to calculate a variable slope sigmoidal dose-response curve.
Cytotoxicity was defined as a >50% reduction in the net turnover of the metabolic substrate WST-1 (Roche, Indianapolis, Indiana, United States) and/or by the appearance of dramatic alterations in the microscopic appearance of cell morphology at the time of harvest.

| Substance | Cytotoxic dose | Cytotoxicity |
| --- | --- | --- |
| Cellulose sulfate | None of the compounds scored as cytotoxic at doses ≤100 μg/ml, except cellulose sulfate, which was cytotoxic at doses ≥11 μg/ml. |  |
| Methyl ß-cyclodextrin |  | >1,000 μg/ml |
| Polystyrene sulfonate [Polystyrene sulfonate, 1,430 kDa] |  | 1,400 μg/ml |
